Values quoted from earlier work as cited in patent US5658939A, “Methionine sulfone and S-substituted cysteine sulfone derivatives as enzyme inhibitors” (Corvas International Inc., priority 1995, dated 1997).

Target: human alphathrombin
Details: Table 4, literature values (footnotes c and d); cited from earlier work

CC1CNc2c(cccc2S(=O)(=O)N[C@@H](CCCNC(=N)N)C(=O)N2CC[C@@H](C)C[C@@H]2C(=O)O)C1 (stereo partly drawn) [Argatroban, 2R,4R-4-methyl-1-[N-2-(3-methyl-1,2,3,4-tetrahydro-8-quinolinesulfonyl)-L-argininal]-2-piperdinecarboxylic acid, reference compound]
pKi: 7.72

pKi: −log10 of the molar value.
